Biological target: T1, Neutrophil elastase (Homo sapiens, UniProt P08246)
T1 sequence (P08246 whole entry): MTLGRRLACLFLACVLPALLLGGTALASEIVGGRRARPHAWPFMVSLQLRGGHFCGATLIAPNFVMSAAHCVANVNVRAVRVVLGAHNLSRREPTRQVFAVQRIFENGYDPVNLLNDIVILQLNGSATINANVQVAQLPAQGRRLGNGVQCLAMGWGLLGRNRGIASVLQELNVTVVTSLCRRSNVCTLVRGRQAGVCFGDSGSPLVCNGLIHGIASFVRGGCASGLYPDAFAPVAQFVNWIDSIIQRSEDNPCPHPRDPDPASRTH
Test: Inhibition of human neutrophil elastase by enzymatic assay

- IC50: 41 nM
SMILES: CC(C)(C)C(=O)Oc1ccc(S(=O)(=O)Nc2ccccc2C(=O)NCC(=O)O)cc1
